Target: RAR (Homo sapiens, UniProt P10276)
Experiment: RAR reporter gene (luciferase) transfer assay in COS-1 cells
Settings: 10^−7 M; control lot = 1

Amino acid sequences for entries named in this document (tags omitted).
UniProt P10276, whole entry: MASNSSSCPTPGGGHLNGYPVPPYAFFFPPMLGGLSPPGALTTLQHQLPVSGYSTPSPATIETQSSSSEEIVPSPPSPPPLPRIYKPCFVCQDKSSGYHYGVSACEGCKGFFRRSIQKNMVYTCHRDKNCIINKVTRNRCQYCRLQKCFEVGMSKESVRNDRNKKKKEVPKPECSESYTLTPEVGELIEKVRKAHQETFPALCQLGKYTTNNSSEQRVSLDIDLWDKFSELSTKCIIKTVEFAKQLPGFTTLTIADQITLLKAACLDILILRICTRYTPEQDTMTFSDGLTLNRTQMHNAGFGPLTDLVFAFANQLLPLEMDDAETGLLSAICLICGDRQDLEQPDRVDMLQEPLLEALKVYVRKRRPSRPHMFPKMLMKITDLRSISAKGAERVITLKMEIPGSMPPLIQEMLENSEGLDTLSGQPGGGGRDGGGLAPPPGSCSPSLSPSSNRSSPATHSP

SMILES: CC1=C(/C=C/C(C)=C\C=C\C(C)=C\C(=O)O)C(C)(C)CCC1 [9-cis Retinoic acid, reference compound]
- degree of increase in the luciferase activity, RAR vector: 36
